Test results: patent US8263590B2, “Pyrimidine derivatives” (priority 2003, dated 2012)

System: Jurkat T human leukemic cell line
Experiment: In vitro T cell migration assay
Assay type: cell-based
Settings: read-out: T Cell Migration IC50

Compound: CCCS(=O)(=O)c1ccccc1Nc1nc(Nc2cc(N3CCC(N4CCOCC4)CC3)ccc2OC)ncc1Cl
- pIC50: 6.64

pIC50: −log10 of the molar value.
